Source: US7816560B1, “Long chain n-alkyl compounds and oxa-derivatives thereof” (Thomas Jefferson University, priority 1999, dated 2010)

Amino acid sequences for entries named in this document (tags omitted).
UniProt Q16739, whole entry: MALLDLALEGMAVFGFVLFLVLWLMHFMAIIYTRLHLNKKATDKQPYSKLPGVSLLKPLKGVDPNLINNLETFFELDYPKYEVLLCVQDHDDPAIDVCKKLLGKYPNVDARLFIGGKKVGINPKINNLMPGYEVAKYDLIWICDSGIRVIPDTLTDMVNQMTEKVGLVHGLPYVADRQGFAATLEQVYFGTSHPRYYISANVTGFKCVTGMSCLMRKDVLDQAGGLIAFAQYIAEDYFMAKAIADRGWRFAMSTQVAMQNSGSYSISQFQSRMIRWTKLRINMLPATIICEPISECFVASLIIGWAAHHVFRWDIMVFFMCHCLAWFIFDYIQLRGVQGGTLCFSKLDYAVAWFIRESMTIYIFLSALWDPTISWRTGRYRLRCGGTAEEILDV

Columns and labels:
MDBK cells = assay: Toxicity / cell cytotoxicity in MDBK cells; format: cell-based; conditions: for % Viability at 10 μM: N-alkyl DNJ at 10 μM; for % Viability at 100 μM: N-alkyl DNJ at 100 μM
[1] = biological target: ceramide glucosyl transferase (CerGlcT) (Homo sapiens, UniProt Q16739); assay: Inhibition of ceramide glucosyl transferase / glycolipid synthesis; format: biochemical; conditions: read-out: CerGlcT (IC50); N-alkyl DNJ derivatives

| SMILES | % Viability at 10 μM (MDBK cells) [%] | % Viability at 100 μM (MDBK cells) [%] | IC50 [1] [µM] |
| --- | --- | --- | --- |
| CCCCCCCCCCCCCCCCCCN1C[C@H](O)[C@@H](O)[C@H](O)[C@H]1CO | 84 | 2 | 4.1 |
| CCCCCCCCCCCCCCCCN1C[C@H](O)[C@@H](O)[C@H](O)[C@H]1CO | 88 | 4 | 3.4 |
| CCCCCN1C[C@H](O)[C@@H](O)[C@H](O)[C@H]1CO | 80 | 70 | 26.8 |
